According to PubChem BioAssay AID893 (National Center for Advancing Translational Sciences (NCATS), 2007):
This is a selection; strong and weak results do not stand in their true shares. Inconclusive results are not listed. Active and inactive are the calls of the source. Calls follow the shape of the dose curve; as a rule, active = well fitted inhibition curve with a large enough effect; inconclusive = small, poorly fitted or top-dose-only effect; inactive = no such curve, though single readings can be large or run the other way.

Target: 3-hydroxyacyl-CoA dehydrogenase type-2 (Homo sapiens) (UniProt Q99714)
Test: qHTS Assay for Inhibitors of HSD17B4, hydroxysteroid (17-beta) dehydrogenase 4;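 also: the protocol describes HADH2 (HSD17B10) and not the HSD17B4 of the title; nearly all actives have a fitted effect of over 70% in size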
Conditions: recombinant HSD17B10, NADH fluorescence kinetic
Potency is read from the fitted curve at half-maximal effect.

With `O=P(Nc1nccs1)(c1ccccc1)c1nc2ccccc2s1` (stereo unspecified) as the molecule, how does the Potency read?
Its Potency is active: 794 nM.
